Measured values published in patent US12612426B2, “Aryl glucoside derivative” (Shanghai Zheye Biotechnology Co. Ltd., priority 2020, dated 2026).

Chains of the proteins cited; added tags and fusions are not shown.
UniProt P13866, whole entry: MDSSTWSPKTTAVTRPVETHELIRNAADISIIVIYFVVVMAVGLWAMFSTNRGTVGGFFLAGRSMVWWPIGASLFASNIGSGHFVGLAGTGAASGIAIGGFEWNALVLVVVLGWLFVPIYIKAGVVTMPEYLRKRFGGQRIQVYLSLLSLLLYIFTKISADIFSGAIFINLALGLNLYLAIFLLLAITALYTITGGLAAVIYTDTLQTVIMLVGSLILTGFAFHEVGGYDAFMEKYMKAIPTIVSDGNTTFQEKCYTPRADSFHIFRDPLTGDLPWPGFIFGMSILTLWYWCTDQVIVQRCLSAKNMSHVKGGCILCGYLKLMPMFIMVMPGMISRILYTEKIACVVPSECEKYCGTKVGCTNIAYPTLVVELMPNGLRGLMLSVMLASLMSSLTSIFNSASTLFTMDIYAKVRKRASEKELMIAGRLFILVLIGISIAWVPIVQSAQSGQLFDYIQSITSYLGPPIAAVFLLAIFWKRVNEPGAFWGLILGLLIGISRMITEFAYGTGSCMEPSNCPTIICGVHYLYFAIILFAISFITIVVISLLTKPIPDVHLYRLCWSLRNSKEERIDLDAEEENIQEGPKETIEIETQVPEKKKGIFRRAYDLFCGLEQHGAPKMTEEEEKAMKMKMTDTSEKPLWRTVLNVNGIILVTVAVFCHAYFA

Columns and labels:
[1] = Oral glucose tolerance test (OGTT) after continuous administration in rats for 14 days
Experimental: • Experimental animals: SPF male SD rats; • Compound preparation: an appropriate amount of the compounds of Example 1, Example 3, and Example 4 were weighed, and uniformly suspended with an appropriate amount of 0.5% CMC-Na solution; • Preparation of glucose solution: an appropriate amount of glucose powder was weighed and dissolved with an appropriate amount of pure water; • Dosage and method of administration: 0.009 mg/kg, oral gavage.
Experimental process: the animals were fed a normal diet with consecutive administration for 14 days, and the glucose tolerance test was performed on day 15, blood glucose was detected before administration (−30 min), before giving glucose (0 min), and 10, 30, 60, and 120 min after giving glucose solution, and the defecation of animals was observed.

SGLT1 [2] = target: T1, SGLT1 (Homo sapiens, UniProt P13866); test: hSGLT1 inhibitor activity experiment 2: 2-NBDG uptake by HEK293 cells stably expressing human SGLT1; settings: read-out: SGLT1 Inhibitory Activity
Experimental: Inhibitory activity testing was performed with reference to a similar method described in document [Acta Pharmaceutica Sinica 2017, 52 (6): 897-903; Nature Protocols (2007), 2(3), 753-762; Journal of Biochemical and Biophysical Methods (2005), 64(3), 207-215; Diabetes Technology & Therapeutics (2011), 13(7), 743-775].
In this experiment, the in vitro activity assay was evaluated using the uptake of 2-NBDG (2-Deoxy-2-[(7-nitro-2,1,3-benzoxadiazol-4-yl)amino]-D-glucose, CAS NO: 186689-07-6) by human embryonic kidney epithelial cells (HEK293, stably expressing human SGLT1), and the SGLT1 inhibitory activity of the target compound was determined by measuring its half-maximal inhibitory concentration (IC50).
HEK293 cells that can stably express human SGLT1 gene were inoculated into a 96-well clear-bottom black plate containing DMEM medium. The cells were incubated at 37° C., 5% CO2 in a cell incubator. […] The cells were lysed by adding NaOH, and the content of 2-NBDG in the cells was detected by a fluorescence microplate reader. The protein concentration of the lysate was measured by BCA method, the uptake of 2-NBDG was quantified by fluorescence intensity/protein content, and the obtained data were analyzed using GraphPad Prism to determine the median inhibitory concentration (IC50) of the compound to be tested. […]

[3] = Oral glucose tolerance test (OGTT) after consecutive administration in mice, with observation of defecation; settings: for blood glucose level in OGTT on day 6: oral gavage once a day for 5 days
Experimental: • Experimental Animals: SPF Male SD Mice; • Compound preparation: an appropriate amount of the compound of Example 4 was weighed, and uniformly suspended with an appropriate amount of 0.5% CMC-Na solution; • Preparation of glucose solution: an appropriate amount of glucose powder was weighed and dissolved with an appropriate amount of pure water; • Administration and dosage: oral gavage; blank vehicle group, high-dose group (1.5 mg/kg), low-dose group (0.1 mg/kg). Experimental Process: • (1) The mice were fed a high-sugar diet for 6 days, and then grouped (10 mice in each group) to enter the administration stage; • (2) Example compound 4 was administered at 5:00 pm every day from day 1 to day 5, once a day, and then the animals were fed a high-sugar free diet, and the defecation of the animals was observed. • (3) On day 6, oral glucose tolerance test was performed, and glucose solution (2 g/kg) was orally administered. Blood glucose was detected before (0 min) and 10, 30, and 60 min after giving glucose solution, respectively. Experimental Results: • (1) From day 1 to day 5, the observation of animal defecation after continuous administration is summarized as follows: […]

SGLT1 [4] = target: T1, SGLT1; test: SGLT1 inhibitor activity experiment 1; settings: read-out: SGLT1 Activity
Experimental: The inhibitory activity of SGLT1 was tested with reference to the method described in document (Journal of Medicinal Chemistry 2017, 60, 710-721, Discovery of LX2761, a Sodium-Dependent Glucose Cotransporter 1 (SGLT1) Inhibitor Restricted to the Intestinal Lumen, for the Treatment of Diabetes).

[5] = In vivo hypoglycemic efficacy experiment combined with sitagliptin, STZ-induced type 2 diabetes mouse model; settings: 0.02, 0.05 or 0.1 mg/kg combined with 20 mg/kg of sitagliptin
Experimental: Model establishment: SPF grade Balb/C male mice were used in this experiment, and the establishment of the type 2 diabetes mouse model was induced by intraperitoneal injection of streptozotocin (STZ) supplemented by high-fat and high-sugar diet.
Administration: normal group, model group, low-dose combined administration group (0.02 mg/kg of the compound of Example 4+20 mg/kg of sitagliptin), medium-dose combined administration group (0.05 mg/kg of the compound of Example 4+20 mg/kg of sitagliptin), high-dose combined administration group (0.1 mg/kg of the compound of Example 4+20 mg/kg of sitagliptin), sitagliptin group (20 mg/kg). The normal group and the model group were given the solvent by gavage.

[6] = system: microorganisms in rat feces; test: Intestinal microbial metabolic stability in rat feces suspension; settings: for Percentage of the remaining compound: rat feces suspension, 37° C.
Experimental: Methods: The collected rat feces were processed, and the feces suspension was obtained for the determination of metabolic stability. The mixed reaction system consisting of the rat feces suspension and the compound of Example 5 was incubated at 37° C. for 3 h, 6 h, 12 h and 24 h. The compound of Example 4 in the incubation system was analyzed to determine the total amount of remaining compound. Wherein, “+” represents the remaining percentage being: <50%; “++” represents the remaining percentage being: 50% to 70%; “+++” represents the remaining percentage being: 70% to 90%; “++++” means the remaining percentage being: >90%.

C#CCN(C)CCNC(=O)C(C)(C)NC(=O)CCCc1ccc(Cc2cc([C@@H]3O[C@H](SC)[C@@H](O)[C@H](O)[C@H]3O)ccc2C)cc1
blood sugar level in OGTT ([1]; 0.009 mg/kg oral gavage for 14 days, OGTT on day 15): significantly reduce the blood sugar level of rats | loose stools ([1]; 0.009 mg/kg oral gavage, within 48 hours before and after the experiment): no loose stools were observed | IC50 (SGLT1 [2]): 0.35 nM | Statistics of loose stools in animals ([3]; high-dose group (1.5 mg/kg), Day 1, animals with loose stool/animals in group): 3/10 | Statistics of loose stools in animals ([3]; high-dose group (1.5 mg/kg), Day 2): 1/10 | Statistics of loose stools in animals ([3]; high-dose group (1.5 mg/kg), Day 3): 0/10 | Statistics of loose stools in animals ([3]; high-dose group (1.5 mg/kg), Day 4): 0/10 | Statistics of loose stools in animals ([3]; high-dose group (1.5 mg/kg), Day 5): 0/10 | blood glucose level in OGTT on day 6 ([3]; high-dose group (1.5 mg/kg)): significantly reduce the blood glucose level of mice | Statistics of loose stools in animals ([3]; low-dose group (0.1 mg/kg), Day 1): 0/10 | Statistics of loose stools in animals ([3]; low-dose group (0.1 mg/kg), Day 2): 0/10 | Statistics of loose stools in animals ([3]; low-dose group (0.1 mg/kg), Day 3): 0/10 | Statistics of loose stools in animals ([3]; low-dose group (0.1 mg/kg), Day 4): 0/10 | Statistics of loose stools in animals ([3]; low-dose group (0.1 mg/kg), Day 5): 0/10 | blood glucose level in OGTT on day 6 ([3]; low-dose group (0.1 mg/kg)): significantly reduce the blood glucose level of mice | IC50 (SGLT1 [4]): < 50 nM | blood glucose level of diabetic model animals [5]: significantly reduce the blood glucose level of diabetic model animals | remaining compound after incubation with microorganisms in rat feces ([6]; about 24 hours): > 70% | Percentage of the remaining compound ([6]; incubation time 3 h): ++++ (the remaining percentage being: >90%) | Percentage of the remaining compound ([6]; incubation time 6 h): ++++ (the remaining percentage being: >90%) | Percentage of the remaining compound ([6]; incubation time 12 h): +++ (the remaining percentage being: 70% to 90%) | Percentage of the remaining compound ([6]; incubation time 24 h): +++ (the remaining percentage being: 70% to 90%)
